The values that follow are results of earlier work, collected in US20040122083A1, “Antitubulin assembly and cell growth inhibitor denominated "dioxostatin"” (priority 2003, published 2004).

Sequences of proteins named here, by UniProt entry; tags and fusion partners are left off.
UniProt P02550, whole entry: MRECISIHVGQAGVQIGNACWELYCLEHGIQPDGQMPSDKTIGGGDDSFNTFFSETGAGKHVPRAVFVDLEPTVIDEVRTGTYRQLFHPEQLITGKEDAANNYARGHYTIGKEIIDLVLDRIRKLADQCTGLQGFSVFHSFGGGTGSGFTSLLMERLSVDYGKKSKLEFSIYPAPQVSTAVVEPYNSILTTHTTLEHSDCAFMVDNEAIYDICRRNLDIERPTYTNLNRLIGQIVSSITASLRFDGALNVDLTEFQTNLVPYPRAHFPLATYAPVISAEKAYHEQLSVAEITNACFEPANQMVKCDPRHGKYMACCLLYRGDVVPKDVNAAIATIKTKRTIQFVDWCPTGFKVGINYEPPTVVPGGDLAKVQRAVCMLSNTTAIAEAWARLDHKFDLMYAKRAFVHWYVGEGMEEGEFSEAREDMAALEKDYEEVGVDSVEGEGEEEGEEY
UniProt P02554, whole entry: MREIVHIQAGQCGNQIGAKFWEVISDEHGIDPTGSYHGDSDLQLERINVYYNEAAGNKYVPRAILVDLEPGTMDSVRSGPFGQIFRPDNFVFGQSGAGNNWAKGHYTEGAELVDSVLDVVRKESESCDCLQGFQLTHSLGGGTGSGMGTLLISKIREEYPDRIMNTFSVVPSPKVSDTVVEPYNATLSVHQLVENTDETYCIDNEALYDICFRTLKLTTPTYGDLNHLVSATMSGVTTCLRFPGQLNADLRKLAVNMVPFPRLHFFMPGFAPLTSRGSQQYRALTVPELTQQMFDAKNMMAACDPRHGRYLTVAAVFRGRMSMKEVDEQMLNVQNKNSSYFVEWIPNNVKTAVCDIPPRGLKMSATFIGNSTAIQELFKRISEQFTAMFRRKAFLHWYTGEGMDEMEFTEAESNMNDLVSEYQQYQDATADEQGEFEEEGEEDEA

One data set deals with PC-6. The following applies: cited from earlier work.
The test system of data set [1] is PC-12 (multidrug resistant). The following applies: cited from earlier work.
Another data set concerns the target porcine brain tubulin (Sus scrofa, UniProt P02550+P02554). The following applies: read-out: inhibition of porcine brain tubulin polymerization IC50; Shirai and co-workers; cited from earlier work.

For `COc1ccc([C@@H]2OCO[C@H]2c2cc(OC)c(OC)c(OC)c2)cc1O`, in the data set with PC-6, the “GI50, in vitro growth of PC-6” value was 2 ng/mL. In addition, the “GI50, in vitro growth of PC-12” value in data set [1] is 2 ng/mL.
On to `COc1ccc([C@H]2OCO[C@@H]2c2cc(OC)c(OC)c(OC)c2)cc1O`, for which, at porcine brain tubulin, the IC50 is more than 50 µM.
